Earlier results on one molecule are cited in PMC3124071 (Journal of medicinal chemistry, 2011).

Each structure is given as a SMILES string. pIC50: −log10 of the molar value.

This series deals with hURAT1. To be noted: read-out: IC50 via MDCK-hURAT1; MDCK-hURAT1 ref 29; cited from earlier work.

Take `CCc1oc2cc(O)ccc2c1C(=O)c1cc(Br)c(O)c(Br)c1` [Compound 8, (3,5-dibromo-4-hydroxyphenyl)(2-ethyl-6-hydroxy-benzofuran-3-yl)methanone]: the pIC50 was 6.70.

Broadly, the pIC50 is −log10 of the IC50, conventionally taken in molar units.
